Earlier results on one compound are cited in patent publication US8278437B2, “Hydroxypropyl-sulfobutyl-beta-cyclodextrin, the preparation method, the analytical method, and the pharmacutical application thereof” (priority 2005, dated 2012).

This series concerns rat. The settings on record: Oral; cited from earlier work.

One may read the LD50 as the dose at which mortality reaches 50%. Take `O=C(OCc1ccccc1)c1ccccc1` [Benzyl benzoate]: the LD50 is 1700 mg/kg.
